Source: article PMC5775417 (Scientific Reports, 2018)

Protein sequences, listed by entry. Tags and fused reporters are not part of them.
UniProt P14416, whole entry E95A: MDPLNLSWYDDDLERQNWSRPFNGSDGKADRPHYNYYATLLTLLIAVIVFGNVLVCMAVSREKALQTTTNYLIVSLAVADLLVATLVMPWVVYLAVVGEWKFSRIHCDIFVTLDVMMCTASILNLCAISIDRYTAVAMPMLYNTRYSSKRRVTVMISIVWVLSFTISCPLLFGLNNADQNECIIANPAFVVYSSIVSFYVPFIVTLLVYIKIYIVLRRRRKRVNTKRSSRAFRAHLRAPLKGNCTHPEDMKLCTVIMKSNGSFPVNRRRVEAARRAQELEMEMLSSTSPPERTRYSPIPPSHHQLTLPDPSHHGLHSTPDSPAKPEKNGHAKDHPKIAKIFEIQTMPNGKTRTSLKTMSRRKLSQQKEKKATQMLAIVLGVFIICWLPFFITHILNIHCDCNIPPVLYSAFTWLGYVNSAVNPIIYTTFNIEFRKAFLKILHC
UniProt P14416, whole entry: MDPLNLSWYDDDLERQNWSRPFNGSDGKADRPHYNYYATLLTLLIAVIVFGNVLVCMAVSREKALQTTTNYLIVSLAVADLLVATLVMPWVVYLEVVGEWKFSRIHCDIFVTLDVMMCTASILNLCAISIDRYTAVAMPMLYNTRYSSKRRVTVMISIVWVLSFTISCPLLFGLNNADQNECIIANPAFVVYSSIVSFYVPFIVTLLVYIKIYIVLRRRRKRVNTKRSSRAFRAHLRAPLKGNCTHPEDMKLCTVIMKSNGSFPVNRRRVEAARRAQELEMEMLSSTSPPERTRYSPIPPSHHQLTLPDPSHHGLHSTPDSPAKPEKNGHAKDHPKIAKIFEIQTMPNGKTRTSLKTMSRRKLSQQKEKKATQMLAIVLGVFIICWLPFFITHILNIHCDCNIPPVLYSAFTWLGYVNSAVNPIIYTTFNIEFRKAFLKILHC
UniProt P14416, whole entry D80A: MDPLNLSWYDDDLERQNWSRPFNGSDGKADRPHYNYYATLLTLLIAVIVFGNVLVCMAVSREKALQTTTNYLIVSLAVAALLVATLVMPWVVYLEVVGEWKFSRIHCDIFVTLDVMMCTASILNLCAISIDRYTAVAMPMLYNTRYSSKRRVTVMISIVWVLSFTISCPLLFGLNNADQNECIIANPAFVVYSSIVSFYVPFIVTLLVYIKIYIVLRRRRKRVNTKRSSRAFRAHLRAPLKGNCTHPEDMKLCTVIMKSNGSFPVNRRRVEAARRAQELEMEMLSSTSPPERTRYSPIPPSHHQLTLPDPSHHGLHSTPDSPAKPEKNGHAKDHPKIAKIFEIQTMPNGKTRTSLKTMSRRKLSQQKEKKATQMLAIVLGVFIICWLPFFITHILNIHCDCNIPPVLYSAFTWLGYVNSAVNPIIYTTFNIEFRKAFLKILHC

Tests used:
Assay in all cases: [3H]spiperone saturation binding, membranes of Flp-In CHO cells
E95^2.65A c-myc-D2LR = target: T1, E95^2.65A c-myc-D2LR (Homo sapiens, UniProt P14416, E95A)
T1 construct: expressed in transfected cells
Protocol: (§1) Flp-In CHO cells (Invitrogen) were transfected with the pOG44 vector encoding Flp recombinase and the pDEST vector encoding the wild-type or mutant c-Myc-D2LR at a ratio of 9:1 using polyethylenimine (Polysciences, Warrington, PA) as transfection reagent. 24 hours after transfection the cells were subcultured and the medium was supplemented with 700 μg/ml hygromycin B as selection agent to obtain cells stably expressing the c-Myc-D2LR. FlpIn CHO cells stably expressing the wild-type or mutant c-Myc-D2LR were grown in Dulbecco’s modified Eagle’s medium (DMEM) supplemented with 10% fetal bovine serum and 200 µg/mL of Hygromycin-B, and maintained at 37 °C in a humidified incubator containing 5% CO2. When cells were approximately 90% confluent, they were harvested and centrifuged (300 g, 3 min, 4 °C). The resulting pellet was resuspended in assay buffer either in the presence (20 mM HEPES, 100 mM NaCl, 6 mM MgCl2, 1 mM EGTA, and 1 mM EDTA, pH 7.4) or absence (20 mM HEPES, 100 mM NMDG, 6 mM MgCl2, 1 mM EGTA, and 1 mM EDTA, pH 7.4) of sodium ions. The centrifugation procedure was repeated. The intact cell pellet was then resuspended in assay buffer and homogenized using a Polytron homogenizer for three 10 s intervals on the maximum setting, with 30 s periods on ice between each burst. The homogenate volume was brought up to 30 mL, the sample was centrifuged (350 g, 5 min, 4 °C), the pellet was discarded, and the supernatant was centrifuged at 30 000 g for 1 hr at 4 °C. The resulting pellet was resuspended in 5 mL of assay buffer, and the protein content was determined using the bicinchoninic acid assay (BCA assay). The homogenate was then separated into 500 µl aliquots and stored at −80 °C until it was required for binding assays.
(§2) Binding was terminated by fast-flow filtration over GF/B membranes using a Brandel harvester followed by three washes with ice-cold 0.9% NaCl. Bound radioactivity was measured in a Tri-Carb 2900TR liquid scintillation counter (PerkinElmer).

WT c-myc-D2LR = target: T2, WT c-myc-D2LR (Homo sapiens, UniProt P14416)
T2 construct: expressed in transfected cells
Protocol: as §1, §2

D80^2.50A c-myc-D2LR = target: T3, D80^2.50A c-myc-D2LR (Homo sapiens, UniProt P14416, D80A)
T3 construct: expressed in transfected cells
Protocol: as §1, §2

[1] = 100 mM NMDG (no Na+), listed as [^3H]spiperone
[2] = 100 mM NaCl, listed as [^3H]spiperone

## O=C(CCCN1CCC2(CC1)C(=O)NCN2c1ccccc1)c1ccc(F)cc1 [[ ^3 H]spiperone, [^3H]spiperone]
E95^2.65A c-myc-D2LR; 100 mM NMDG (no Na+)
  Bmax (number of receptors labelled): 196.6 ± 8.8 fmol/mg
E95^2.65A c-myc-D2LR; [1]
  Bmax (number of receptors labelled): 196.6 fmol/mg
E95^2.65A c-myc-D2LR; 100 mM NaCl
  Bmax (number of receptors labelled): 225.5 ± 27.2 fmol/mg
E95^2.65A c-myc-D2LR; [2]
  Bmax (number of receptors labelled): 225.5 fmol/mg
WT c-myc-D2LR; 100 mM NMDG (no Na+)
  Bmax (number of receptors labelled): 216.1 ± 10.8 fmol/mg
WT c-myc-D2LR; [1]
  Bmax (number of receptors labelled): 216.1 fmol/mg
WT c-myc-D2LR; 100 mM NaCl
  Bmax (number of receptors labelled): 237.0 ± 6.7 fmol/mg
WT c-myc-D2LR; [2]
  Bmax (number of receptors labelled): 237.0 fmol/mg
D80^2.50A c-myc-D2LR; 100 mM NMDG (no Na+)
  Bmax (number of receptors labelled): 192.4 ± 10.7 fmol/mg
D80^2.50A c-myc-D2LR; 100 mM NaCl
  Bmax (number of receptors labelled): 215.4 ± 7.0 fmol/mg
D80^2.50A c-myc-D2LR; [2]
  Bmax (number of receptors labelled): 215.4 fmol/mg
